Data: patent US9956229B2, “Acyclic cucurbit[n]uril type molecular containers to treat intoxication and decrease relapse rate in substance abuse disorders” (UNIVERSITY OF MARYLAND, COLLEGE PARK, priority 2014, dated 2018)

Conditions: CB[7] 500.2 μM, TMSP 600.6 μM, methamphetamine 598.7 μM, sample determination

O=C1N2CN3C(=O)N4CN5C(=O)N6CN7C(=O)N8CN9C(=O)N%10CN%11C(=O)N%12CN%13C(=O)N%14CN1C1C2N2CN%15C(=O)N(CN%16C(=O)N(CN%17C(=O)N(CN%18C(=O)N(CN%19C(=O)N(CN%20C(=O)N(CN1C2=O)C%14C%13%20)C%12C%11%19)C%10C9%18)C8C7%17)C6C5%16)C4C3%15 (stereo not shown) [CB[7], cucurbit[7]uril]
Krel (methamphetamine versus TMSP for CB[7]): 6.72
